Values quoted from earlier work as cited in patent publication US11377636B2, “Endogenous retrovirus transcription as a marker for primate naive pluripotent stem cells” (Max-Delbrück-Centrum für Molekulare Medizin in der …, priority 2014, dated 2022).

Sequences of proteins named here, by UniProt entry; tags and fusion partners are left off.
UniProt P06239, whole entry, species assumed: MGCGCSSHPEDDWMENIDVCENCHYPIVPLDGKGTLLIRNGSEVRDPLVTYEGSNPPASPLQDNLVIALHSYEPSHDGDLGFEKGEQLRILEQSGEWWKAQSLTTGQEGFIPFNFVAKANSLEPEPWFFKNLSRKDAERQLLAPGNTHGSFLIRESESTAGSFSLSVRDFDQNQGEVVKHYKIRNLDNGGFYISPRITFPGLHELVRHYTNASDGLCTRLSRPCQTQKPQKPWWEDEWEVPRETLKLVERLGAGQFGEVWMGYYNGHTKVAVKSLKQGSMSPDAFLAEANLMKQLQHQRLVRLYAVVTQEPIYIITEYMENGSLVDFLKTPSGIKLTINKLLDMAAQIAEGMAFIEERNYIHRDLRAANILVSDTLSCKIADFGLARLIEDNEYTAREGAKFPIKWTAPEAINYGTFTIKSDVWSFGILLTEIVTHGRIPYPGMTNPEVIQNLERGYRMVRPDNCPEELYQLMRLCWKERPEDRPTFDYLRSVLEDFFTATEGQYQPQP
UniProt Q16539, whole entry: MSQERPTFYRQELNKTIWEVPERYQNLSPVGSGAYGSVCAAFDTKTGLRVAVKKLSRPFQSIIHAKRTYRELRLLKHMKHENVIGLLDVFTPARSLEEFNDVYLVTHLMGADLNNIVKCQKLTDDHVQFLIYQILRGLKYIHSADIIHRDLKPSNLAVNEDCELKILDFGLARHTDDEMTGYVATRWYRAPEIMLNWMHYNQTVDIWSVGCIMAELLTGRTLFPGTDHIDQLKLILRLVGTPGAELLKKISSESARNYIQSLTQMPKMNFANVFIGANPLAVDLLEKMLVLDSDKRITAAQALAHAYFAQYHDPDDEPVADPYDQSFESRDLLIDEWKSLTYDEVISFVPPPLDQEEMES

Columns and labels:
[1] = molecular target: Lck (Homo sapiens, UniProt P06239)
[2] = molecular target: p38α (Homo sapiens, UniProt Q16539)

IC50 [1]: 2 nM
inhibition on p38α [2]: little inhibition
Substance: WH-4-023
